An excerpt weighted towards active compounds, which were near 2.3% of everything screened.
ASAP1 GAP inh – inhibitors of human ASAP1 ArfGAP activity; ASAP1-stimulated ARF1 GTP hydrolysis, GDP FP detection; inhibition, % at 16.5 µM; 0.19% of 360,000 active; AID 624377; in the data active means inhibition above about 25%;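 further: 0% = vehicle with enzyme and substrate and 100% = no enzyme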
ARFGAP1 inhibitor – inhibitors of rat ARFGAP1; Arfgap1-stimulated ARF1 GTP hydrolysis, GDP FP detection; Q62848; 0.26% of 360,000 active; inhibition, % at 16.5 µM;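 active means inhibition above a per-plate limit, mean inhibition of low control wells plus 3 SD, cut at about 25% in these data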;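 further: 0% = DMSO wells with enzyme and 100% = wells lacking Arfgap1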
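System: truncated rat Arfgap1 GAP domain / Benchmarks: high control wells lacking Arfgap1, low control full reaction with DMSO / Times: compound-enzyme preincubation 20 min, reaction 120 min, detection 60 min, 25 °C / Repeats: one replicate per compound / Also added: human ARF1(Δ1-17)-GTP substrate / Measured by: Tracer-displacement fluorescence polarization with EDTA stop, 620/688 nm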
MC4R antagonist – blocks human MC4R cAMP signaling; inhibition, % at 6.5 µM; AID 540295; MC4R-expressing cells, MTII-stimulated cAMP, LANCE TR-FRET; 0.48% of 360,000 active; P32245;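 active means inhibition above its plate's cutoff, the mean of tested wells on that plate plus 3 SD, cut at about 29% in these data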;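 further: 0% = Melanotan II alone and 100% = Melanotan II plus saturating MCL0020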
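Material – human MC4R-expressing U2OS cells · Repeats – no replicates · Detection – TR-FRET with Eu-cAMP and labeled anti-cAMP, 671 nm · Times – compound 30 min, challenge 1 h, detection 1 h · Compound – single nominal compound dose of 6.5 µM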
MC4R ag barr – human MC4R agonism via beta-arrestin | P32245 | U2OS MC4R beta-arrestin complementation, luminescence; percent of melanotan II response, DMSO zero | activation, % at 8.9 µM | 0.98% of 360,000 active | AID 540308;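 active means activation above a per-plate cutoff, the mean activation of sample wells on that plate plus 3 SD, cut at about 8% in these data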
Yeast UUG start – modulators of yeast start codon fidelity, primary screen, whole organism, S. cerevisiae, single point, plate reader | AID 602363, 2012 | S. cerevisiae UUG-firefly luciferase reporter, luminescence/redox ratio | activity score, % at 18.7 µM | hit rate 0.13% among 350,000;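 active = replicate mean at a twofold rise or more, about +100% in these data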;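 also: firefly luciferase made from a UUG start codon reports start codon fidelity; reporter light over untreated wells divided by growth signal over untreated wells; some hits fall short of that in this replicate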
CendR NRP1 mod – alters CendR peptide binding to human NRP-1 | AID 602438 | FAM-RPARPAR peptide binding to NRP-1, fluorescence polarization | O14786 | inhibition, % at 25 µM | 0.85% of 360,000 active;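 active means inhibition or corrected inhibition above about 18%, plus a signal ratio from 0.5 to 1.5, limit read from the data, passing the limit was not always enough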
cAMP nonselect – nonselective cAMP signaling inhibitor, MC4R antagonist counter-screen | parental U2OS, forskolin cAMP, LANCE TR-FRET | shares compounds with MC4R antagonist | inhibition, % at 6.5 µM | 26% of 1,600 active;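 active means mean inhibition over triplicates above the low-control well mean plus 3 SD, set per campaign, cut at about 13% in these data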;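 further: signal is single emission at 671 nm which falls as cellular cAMP rises; 0% = forskolin-stimulated wells and 100% = buffer without forskolin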
MC4R cAMP antag – human MC4R cAMP antagonism confirmation | shares compounds with MC4R antagonist | MC4R-expressing cells, MTII-stimulated cAMP, TR-FRET | inhibition, % at 6.5 µM | 27% of 1,600 active | AID 602195; in the data active means inhibition above about 29%;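 further: 0% = agonist stimulated wells alone and 100% = agonist stimulated wells plus saturating reference antagonist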
Numbers without * were called inactive; · = no result given.

SMILES | ASAP1 GAP inh | ARFGAP1 inhibitor | MC4R antagonist | MC4R ag barr | Yeast UUG start | CendR NRP1 mod | cAMP nonselect | MC4R cAMP antag
COc1ccc(CNC(=O)CCN2C(=O)c3ccncc3C2=O)cc1OC | -4 | -3 | 34* | 1 | -13 | 4 | -1 | -14
CC(C)N(c1ccccc1)c1ccc(NC(=O)COC(=O)CCN2C(=O)c3cccc([N+](=O)[O-])c3C2=O)cc1 | 7 | -3 | 36* | 7 | -25 | -4 | 13 | 21
Cn1cnc(S(=O)(=O)N2CC[C@H]3[C@H](CO)Nc4ccc(-c5ccc(F)cc5)cc4[C@H]32)c1 | · | · | · | · | -7 | · | · | ·
O=C(C1CCCC1)N1CCCCN2[C@@H](CO)[C@H](c3ccc(C#CC4(O)CCCC4)cc3)[C@@H]2C1 | · | · | · | · | 18 | · | · | ·
CN(C)c1ccc(NC(=O)CCN2C(=O)c3cccc([N+](=O)[O-])c3C2=O)cc1 | 0 | -4 | 11 | 1 | -15 | 1 | · | ·
CCOc1ccc(NC(=O)CCN2C(=O)c3cccc([N+](=O)[O-])c3C2=O)cc1 | 0 | -9 | 33* | 1 | -12 | 5 | 10 | 18
CCOc1ccc(N2C(=O)C3C(c4ccccc4F)NN(C(=O)c4ccc(C)cc4)C3C2=O)cc1 (stereo unspecified) | 1 | 4 | 30* | 1 | -6 | -3 | -4 | -19
C[C@H]1CN([C@@H](C)CO)C(=O)c2cc(-c3cncnc3)cnc2O[C@@H]1CN(C)C(=O)Nc1ccc2c(c1)OCO2 | · | · | · | · | -11 | · | · | ·
Cc1noc(C)c1NC(=O)N[C@H]1CC[C@H](CCNC(=O)C2CC2)O[C@H]1CO | · | · | · | · | -6 | · | · | ·
C[C@@H]1CN([C@H](C)CO)C(=O)c2cccc(N(C)C)c2O[C@H]1CN(C)S(C)(=O)=O | · | · | · | · | -3 | · | · | ·
COc1ccc(CNC(=O)CSc2nnc(NC(=O)C3CC3)s2)cc1 | -4 | -5 | 29* | -1 | -5 | 9 | 0 | -6
CCC(=O)N(C)C[C@@H]1Oc2cc(C#CC3(O)CCCC3)ccc2S(=O)(=O)N([C@H](C)CO)C[C@@H]1C | · | · | · | · | 2 | · | · | ·
COCCCn1c(=O)/c(=C\c2cccc(OC)c2OC)s/c1=C(/C#N)C(=O)Nc1ccc(C(=O)O)cc1 | 9 | 1 | 29* | 0 | -21 | -73 | -8 | -5
C=CCn1c(CSc2ccccc2[N+](=O)[O-])n[nH]c1=S | 12 | -9 | 14 | 0 | · | -2 | · | ·
C=CCn1c(Sc2ncc([N+](=O)[O-])s2)n[nH]c1=O | 3 | -6 | 43* | -2 | -6 | 11 | 30* | 31*
O=C(C[C@H]1CC[C@H](NS(=O)(=O)c2ccccc2)[C@@H](CO)O1)N1CCc2ccccc2C1 | · | · | · | · | -7 | · | · | ·
CO[C@H]1CN(C)C(=O)c2cc(NC(=O)Nc3ccccc3)ccc2OC[C@H](C)N(C(=O)Nc2c(C)noc2C)C[C@@H]1C | · | · | · | · | 27 | · | · | ·
NC(=O)c1ccsc1NC(=O)COC(=O)/C=C/c1ccc([N+](=O)[O-])cc1 | -8 | -15 | 3 | -1 | · | -22 | · | ·
COC(=O)c1ccc(/C=C/C(=O)OCC(=O)Nc2sccc2C(N)=O)cc1 | · | · | 36* | 4 | -10 | -2 | 15* | 29*
COc1ccc(S(=O)(=O)Nc2ccc3c(c2)C(=O)N([C@@H](C)CO)C[C@@H](C)[C@@H](CN(C)CC2CC2)OCCCC[C@@H](C)O3)cc1 | · | · | · | · | 14 | · | · | ·
Cn1cc(CN2C[C@H]3CC[C@H]2C3)c(-c2ccccc2F)n1 | 7 | 7 | 29* | 1 | -26 | -8 | 1 | -1
Cn1cc(CN2CCC(C(=O)N3CCCC3)CC2)c(-c2ccccc2F)n1 | -7 | -9 | 4 | 2 | · | -4 | · | ·
COc1cccc(S(=O)(=O)N[C@H]2C=C[C@@H](CC(=O)NC3CCC3)O[C@H]2CO)c1 | · | · | · | · | -5 | · | · | ·
O=C(Oc1cncc(Cl)c1)c1ccco1 | 7 | 8 | -4 | -2 | -10 | -1 | · | ·
O=C(Oc1cncc(Cl)c1)c1sccc1Cl | -1 | 1 | 33* | 3 | -15 | 1 | -1 | -9

Profiles, quoted from the list. Values in the order: ASAP1 GAP inh | ARFGAP1 inhibitor | MC4R antagonist | MC4R ag barr | Yeast UUG start | CendR NRP1 mod | cAMP nonselect | MC4R cAMP antag
Shown for Cc1noc(C)c1NC(=O)N[C@H]1CC[C@H](CCNC(=O)C2CC2)O[C@H]1CO = · | · | · | · | -6 | · | · | ·
Shown for NC(=O)c1ccsc1NC(=O)COC(=O)/C=C/c1ccc([N+](=O)[O-])cc1 = -8 | -15 | 3 | -1 | · | -22 | · | ·
Shown for C[C@@H]1CN([C@H](C)CO)C(=O)c2cccc(N(C)C)c2O[C@H]1CN(C)S(C)(=O)=O = · | · | · | · | -3 | · | · | ·

The main list resumes; the two compounds before the break are reprinted first.
SMILES | ASAP1 GAP inh | ARFGAP1 inhibitor | MC4R antagonist | MC4R ag barr | Yeast UUG start | CendR NRP1 mod | cAMP nonselect | MC4R cAMP antag
O=C(Oc1cncc(Cl)c1)c1ccco1 | 7 | 8 | -4 | -2 | -10 | -1 | · | ·
O=C(Oc1cncc(Cl)c1)c1sccc1Cl | -1 | 1 | 33* | 3 | -15 | 1 | -1 | -9
NS(=O)(=O)c1ccc(N2N=C(c3ccccc3)CC2c2ccc(Br)cc2)cc1 (stereo unspecified) | 8 | 3 | 37* | 5 | -18 | -8 | -13 | -16
CC(C)CNC(=O)COC(=O)CNC(=O)c1cc(Cl)cc([N+](=O)[O-])c1 | 9 | 1 | 33* | -2 | -10 | 10 | 17* | 32*
O=C(CSCc1ccc(Cl)cc1Cl)Nc1ccc(O)cc1C(=O)O | -9 | -2 | 11 | 3 | -33 | -6 | · | ·
O=C(CSCc1ccc(Cl)cc1Cl)Nc1ccccc1C(=O)Nc1ccc(C(=O)O)cc1 | 18 | -21 | 30* | 2 | · | -11 | -2 | -2
COc1ccc(S(=O)(=O)Nc2ccc3c(c2)C(=O)N([C@@H](C)CO)C[C@H](C)[C@H](CN(C)C(=O)CCCN(C)C)OCCCC[C@H](C)O3)cc1 | · | · | · | · | 5 | · | · | ·
CC(C)NC(=O)Nc1ccc2c(c1)C(=O)N([C@H](C)CO)C[C@@H](C)[C@H](CN(C)Cc1ccccc1)O2 | · | · | · | · | -11 | · | · | ·
Cc1c(Br)c([N+](=O)[O-])nn1CC(=O)Nc1ccccn1 | -5 | -2 | 6 | -1 | -13 | 1 | · | ·
Cc1nn(CC(=O)Nc2ccccn2)c(C)c1Br | 0 | 10 | 32* | 2 | · | 4 | 2 | -1
CC(NC(=O)C(c1ccccc1)c1ccccc1)c1ccc(S(N)(=O)=O)cc1 (stereo unspecified) | 10 | 11 | -2 | 2 | -2 | 6 | · | ·
CNC(C)c1ccc(S(N)(=O)=O)cc1 (stereo unspecified) | -1 | 1 | 38* | -1 | -3 | -3 | -3 | 2
C[C@@H]1CN([C@@H](C)CO)C(=O)c2cc(NC(=O)C3CC3)ccc2O[C@@H]1CN(C)C(=O)Nc1cccc2ccccc12 | · | · | · | · | -5 | · | · | ·
CC(C)(C)CC(C)(C)c1ccc(O)c(Cc2ccc(Cl)cc2Cl)c1 | -10 | 0 | 44* | 2 | -7 | 23 | 0 | 16
COCCNC(=O)C[C@@H]1C[C@H]2c3cc(NS(=O)(=O)c4ccc(F)cc4)ccc3O[C@H]2[C@@H](CO)O1 | · | · | · | · | -6 | · | · | ·
C=CCn1c(=S)[nH]c2scc(-c3cccs3)c2c1=O | -5 | -2 | 51* | -2 | -22 | -4 | 17* | 28
Cn1c(=S)[nH]c2scc(-c3cccs3)c2c1=O | -12 | 11 | 26 | -1 | · | -4 | · | ·

Assay outcomes as filed in PubChem BioAssay.
